Sequences of proteins named here, by UniProt entry; tags and fusion partners are left off.
UniProt Q96KS0, whole entry: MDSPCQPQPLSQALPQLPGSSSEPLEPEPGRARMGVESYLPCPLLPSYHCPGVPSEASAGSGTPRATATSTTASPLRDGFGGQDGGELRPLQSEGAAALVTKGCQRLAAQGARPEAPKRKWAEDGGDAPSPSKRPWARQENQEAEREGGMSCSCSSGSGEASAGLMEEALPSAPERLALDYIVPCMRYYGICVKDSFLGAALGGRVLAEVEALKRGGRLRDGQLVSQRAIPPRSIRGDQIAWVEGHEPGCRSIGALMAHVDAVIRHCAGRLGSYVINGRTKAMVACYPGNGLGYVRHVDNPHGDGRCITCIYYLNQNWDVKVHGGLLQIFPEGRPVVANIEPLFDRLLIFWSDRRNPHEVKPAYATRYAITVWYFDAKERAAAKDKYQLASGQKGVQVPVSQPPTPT

In patent publication US10287286B2, “Compounds” (Takeda Pharmaceutical Company Limited, priority 2015, dated 2019):

Target: PHD1 enzyme (residues 1-407) (Homo sapiens (Human), UniProt Q96KS0)
Assay: PHD1 Enzyme Assay (UPLC-MS detection of hydroxylated peptide product)
Format: biochemical
Conditions: 20 nM, 60 min pre-incubation at room temperature

In order of rising pIC50:
1. N#Cc1c(F)cc(-c2ccnc3ncnn23)cc1F [Example 202, 2,6-difluoro-4-{[1,2,4]triazolo[1,5-a]pyrimidin-7-yl}benzonitrile]  5.35
2. N#Cc1ccc(-c2cc(CNC3COC3)cc3ncnn23)cc1 [Example 185, 4-(7-{[(oxetan-3-yl)amino]methyl}-[1,2,4]triazolo[1,5-a]pyridin-5-yl)benzonitrile]  5.42
3. COC(C)(C)C(=O)Nc1cc(-c2ccc(C#N)c(F)c2)n2ncnc2c1 [Example 170, N-[5-(4-cyano-3-fluorophenyl)-[1,2,4]triazolo[1,5-a]pyridin-7-yl)-2-methoxy-2-methylpropanamide]  5.52
4. Cc1cc(C#N)c(F)cc1-c1ccnc2ncnn12 [Example 208, 2-fluoro-5-methyl-4-{[1,2,4]triazolo[1,5-a]pyrimidin-7-yl}benzonitrile]  5.60
5. N#Cc1ccc(-c2cc(OCC3CCOC3)cc3ncnn23)cc1F (centres unmarked) [Example 133]  5.64
6. N#Cc1ccc(-c2cc(N3CCC[C@H]3CN3CCCC3)nc3ncnn23)cc1 [Example 75, 4-{5-[(2S)-2-(pyrrolidin-1-ylmethyl)pyrrolidin-1-yl]-[1,2,4]triazolo[1,5-a]pyrimidin-7-yl}benzonitrile]  5.67
7. CN1CCC(Nc2cc(-c3ccc(C#N)cc3)n3ncnc3n2)CC1 [Example 77, 4-{5-[(1-methylpiperidin-4-yl)amino]-[1,2,4]triazolo[1,5-a]pyrimidin-7-yl}benzonitrile]  5.69
8. N#Cc1ccc(-c2cc(C(=O)NC3COC3)cc3ncnn23)cc1 [Example 68, 5-(4-cyanophenyl)-N-(oxetan-3-yl)-[1,2,4]triazolo[1,5-a]pyridine-7-carboxamide]  5.72
9. CC(C)NCc1cc(-c2ccc(C#N)cc2)n2ncnc2c1 [Example 183, 4-(7-{[(propan-2-yl)amino]methyl}-[1,2,4]triazolo[1,5-a]pyridin-5-yl)benzonitrile]  5.82
10. N#Cc1ccc(-c2cc(CNCC3CC3)cc3ncnn23)cc1 [Example 189, 4-(7-{[(cyclopropylmethyl)amino]methyl}-[1,2,4]triazolo[1,5-a]pyridin-5-yl)benzonitrile]  5.89
11. Cc1cc(C#N)ccc1-c1cc(N2CC3(COC3)C2)cc2ncnn12 [Example 252, 3-Methyl-4-(7-{2-oxa-6-azaspiro[3.3]heptan-6-yl}-[1,2,4]triazolo[1,5-a]pyridin-5-yl)benzonitrile]  5.95
12. N#Cc1ccc(-c2ccnc3ncnn23)c(F)c1 [Example 203, 3-fluoro-4-{[1,2,4]triazolo[1,5-a]pyrimidin-7-yl}benzonitrile]  5.96
13. Cc1cc(C#N)ccc1-c1c(F)ccc2ncnn12 [Example 215, 4-{6-Fluoro-[1,2,4]triazolo[1,5-a]pyridin-5-yl}-3-methylbenzonitrile]  6.02
14. N#Cc1ccc(-c2cc(C(=O)NCCN3CCOCC3)cc3ncnn23)cc1 [Example 64, 5-(4-cyanophenyl)-N-[2-(morpholin-4-yl)ethyl]-[1,2,4]triazolo[1,5-a]pyridine-7-carboxamide]  6.17
15. CC(C)NC(=O)c1cc(-c2ccc(C#N)cc2)n2ncnc2c1 [Example 66, 5-(4-cyanophenyl)-N-(propan-2-yl)-[1,2,4]triazolo[1,5-a]pyridine-7-carboxamide]  6.21
16. Cc1cc(C#N)cnc1-c1cccc2ncnn12 [Example 32, 5-methyl-6-{[1,2,4]triazolo[1,5-a]pyridin-5-yl}pyridine-3-carbonitrile]  6.30
17. Cc1cc(C#N)ccc1-c1ccnc2ncnn12 [Example 204, 3-methyl-4-{[1,2,4]triazolo[1,5-a]pyrimidin-7-yl}benzonitrile]  6.33
18. N#Cc1ccc(-c2cc(C(=O)O)cc3ncnn23)cc1 [Example 41, 5-(4-cyanophenyl)-[1,2,4]triazolo[1,5-a]pyridine-7-carboxylic acid]  6.34
19. Cn1cnc(CNC(=O)c2cc(-c3ccc(C#N)cc3)n3ncnc3c2)c1 [Example 61, 5-(4-cyanophenyl)-N-[(1-methyl-1H-imidazol-4-yl)methyl]-[1,2,4]triazolo[1,5-a]pyridine-7-]  6.41
20. CC(C)(C)OC(=O)Nc1cc(-c2ccc(C#N)cc2F)n2ncnc2c1 [Example 242, tert-Butyl N-[5-(4-cyano-2-fluorophenyl)-[1,2,4]triazolo[1,5-a]pyridin-7-yl]carbamate]  6.42
21. CCCCNC(=O)c1cc(-c2ccc(C#N)cc2)n2ncnc2c1 [Example 60, N-butyl-5-(4-cyanophenyl)-[1,2,4]triazolo[1,5-a]pyridine-7-carboxamide]  6.42
22. Cc1cc(C#N)ccc1-c1cc(NC(=O)C(O)C(F)(F)F)cc2ncnn12 (centres unmarked) [Example 239, N-[5-(4-Cyano-2-methylphenyl)-[1,2,4]triazolo[1,5-a]pyridin-7-yl]-3,3,3-trifluoro-2-hydroxypropanamide]  6.48
23. N#Cc1ccc(-c2cc(NC(=O)C3CCCO3)cc3ncnn23)cc1F (stereo in doubt) [Example 160, (2R)-N-[5-(4-cyano-3-fluorophenyl)-[1,2,4]triazolo[1,5-a]pyridin-7-yl]oxolane-2-carboxamide]  6.61
24. COCCCNc1cc(-c2ccc(C#N)cc2)n2ncnc2c1 [Example 111, 4-{7-[(3-methoxypropyl)amino]-[1,2,4]triazolo[1,5-a]pyridin-5-yl}benzonitrile]  6.61
25. N#Cc1ccc(-c2cc(N3CCCC3=O)cc3ncnn23)cc1F [Example 134, 2-fluoro-4-[7-(2-oxopyrrolidin-1-yl)-[1,2,4]triazolo[1,5-a]pyridin-5-yl]benzonitrile]  6.64
26. CNC(=O)C1CCCN1c1cc(-c2ccc(C#N)cc2)n2ncnc2n1 (centres unmarked) [Example 74, 1-[7-(4-cyanophenyl)-[1,2,4]triazolo[1,5-a]pyrimidin-5-yl]-N-methylpyrrolidine-2-carboxamide]  6.74
27. N#Cc1ccc(-c2cc(NC(=O)c3ccccc3)cc3ncnn23)cc1 [Example 123, N-[5-(4-cyanophenyl)-[1,2,4]triazolo[1,5-a]pyridin-7-yl]benzamide]  6.82
28. CC(C)(C)OC(=O)N1CC2(C1)CN(c1cc(-c3ccc(C#N)cc3)n3ncnc3c1)C2 [Example 144, tert-butyl 6-[5-(4-cyanophenyl)-[1,2,4]triazolo[1,5-a]pyridin-7-yl]-2,6-diazaspiro[3.3]heptane-2-carboxylate]  6.84
29. N#Cc1ccc(-c2cc(NC(=O)C3CCCOC3)cc3ncnn23)cc1F (centres unmarked) [Example 164, N-[5-(4-cyano-3-fluorophenyl)-[1,2,4]triazolo[1,5-a]pyridin-7-yl]oxane-3-carboxamide]  6.88
30. N#Cc1ccc(-c2cc(NC(=O)CC3CCOCC3)cc3ncnn23)cc1F [Example 156, N-[5-(4-cyano-3-fluorophenyl)-[1,2,4]triazolo[1,5-a]pyridin-7-yl]-2-(oxan-4-yl)acetamide]  6.89
31. CN(C)CCCOC(=O)Nc1cc(-c2ccc(C#N)c(F)c2)n2ncnc2c1 [Example 198, 3-(dimethylamino)propyl N-[5-(4-cyano-3-fluorophenyl)-[1,2,4]triazolo[1,5-a]pyridin-7-yl]carbamate]  6.96
32. N#Cc1ccc(-c2cc(C(=O)NCC3CC3)cc3ncnn23)cc1 [Example 67, 5-(4-cyanophenyl)-N-(cyclopropylmethyl)-[1,2,4]triazolo[1,5-a]pyridine-7-carboxamide]  6.99
33. N#Cc1ccc(-c2cc(NC(=O)CN3CCCCC3)cc3ncnn23)cc1F [Example 158, N-[5-(4-cyano-3-fluorophenyl)-[1,2,4]triazolo[1,5-a]pyridin-7-yl]-2-(piperidin-1-yl)acetamide]  7.04
34. CC1(C(=O)Nc2cc(-c3ccc(C#N)c(F)c3)n3ncnc3c2)CC1 [Example 163, N-[5-(4-cyano-3-fluorophenyl)-[1,2,4]triazolo[1,5-a]pyridin-7-yl]-1-methylcyclopropane-1-carboxamide]  7.06
35. Cc1nc(C#N)ccc1-c1cc(N)cc2ncnn12 [Example 212, 5-{7-Amino-[1,2,4]triazolo[1,5-a]pyridin-5-yl}-6-methylpyridine-2-carbonitrile]  7.10
36. N#Cc1ccc(-c2cc(NC(=O)OC3CCOC3)cc3ncnn23)cc1F (centres unmarked) [Example 200, oxolan-3-yl N-[5-(4-cyano-3-fluorophenyl)-[1,2,4]triazolo [1,5-a]pyridin-7-yl]carbamate]  7.10
37. Cc1cc(C#N)ccc1-c1cc(NCC(O)CO)cc2ncnn12 (centres unmarked) [Example 232, 4-{7-[(2,3-Dihydroxypropyl)amino]-[1,2,4]triazolo[1,5-a]pyridin-5-yl}-3-methylbenzonitrile]  7.13
38. COC(=O)Nc1cc(-c2ccc(C#N)cc2C)n2ncnc2c1 [Example 145, methyl N-[5-(4-cyano-2-methylphenyl)-[1,2,4]triazolo[1,5-a]pyridin-7-yl]carbamate]  7.18
39. COCCNc1cc(-c2ccc(C#N)cc2F)n2ncnc2c1 [Example 246, 3-Fluoro-4-{7-[(2-methoxyethyl)amino]-[1,2,4]triazolo[1,5-a]pyridin-5-yl}benzonitrile]  7.19
40. N#Cc1ccc(-c2cc(NC(=O)C3(C#N)CC3)cc3ncnn23)cc1F [Example 171, 1-cyano-N-[5-(4-cyano-3-fluorophenyl)-[1,2,4]triazolo[1,5-a]pyridin-7-yl]cyclopropane-1-carboxamide]  7.24
41. N#Cc1ccc(-c2cc(SCc3ccccc3)cc3ncnn23)cc1 [Example 176, 4-[7-(Benzylsulfanyl)-[1,2,4]triazolo[1,5-a]pyridin-5-yl]benzonitrile]  7.40
42. N#Cc1ccc(-c2cc(N)cc3ncnn23)c(F)c1F [Example 260, 4-{7-Amino-[1,2,4]triazolo[1,5-a]pyridin-5-yl}-2,3-difluorobenzonitrile]  7.54
43. Cc1cc(C#N)ccc1-c1cc(O)cc2ncnn12 [Example 249, 4-{7-Hydroxy-[1,2,4]triazolo[1,5-a]pyridin-5-yl}-3-methylbenzonitrile]  7.57
44. CN(C)CCNc1cc(-c2ccc(C#N)cc2)n2ncnc2c1 [Example 113, 4-(7-{[2-(dimethylamino)ethyl]amino}-[1,2,4]triazolo[1,5-a]pyridin-5-yl)benzonitrile]  8.10

pIC50: −log10 of the molar value.
